This passage reports logP results from the SangsterLogP compilation.

The nature of the series: method code RP-HPLC, from DOI: 10.1021/jm030408h, PMID: 14971904.

Usually logP stands for the decadic logarithm of the partition coefficient of the neutral form, usually between octanol and water. Higher therefore signals higher lipophilicity. As to `CC(=O)O[C@H]1C(=O)[C@@]2(C)[C@H]([C@H](OC(=O)c3ccccc3)[C@]3(O)C[C@H](OC(=O)[C@H](O)[C@@H](NC(=O)c4ccccc4)c4ccccc4)C(C)=C1C3(C)C)[C@]1(OC(C)=O)CO[C@@H]1C[C@@H]2O`, the logP came to 4.5.
